Earlier results in US20030003131A1, “Method for manufacture of free-flowing powder containing water-dispersible sterols” (priority 2001, published 2003).

Details: orally administered, chronic administration

For neomycin, the toxicity is listed as “toxic”.
